Assay results from patent US20210024498A1, “TETRAHYDROPYRROLE COMPOUND, PREPARATION METHOD THEREFOR, PHARMACEUTICAL COMPOSITION CONTAINING SAME, AND USE THEREOF” (MEDICONNS (SHANGHAI) BIOPHARMACEUTICAL CO., LTD, priority 2017, published 2021).

Chains of the proteins cited; added tags and fusions are not shown.
UniProt P14416, whole entry: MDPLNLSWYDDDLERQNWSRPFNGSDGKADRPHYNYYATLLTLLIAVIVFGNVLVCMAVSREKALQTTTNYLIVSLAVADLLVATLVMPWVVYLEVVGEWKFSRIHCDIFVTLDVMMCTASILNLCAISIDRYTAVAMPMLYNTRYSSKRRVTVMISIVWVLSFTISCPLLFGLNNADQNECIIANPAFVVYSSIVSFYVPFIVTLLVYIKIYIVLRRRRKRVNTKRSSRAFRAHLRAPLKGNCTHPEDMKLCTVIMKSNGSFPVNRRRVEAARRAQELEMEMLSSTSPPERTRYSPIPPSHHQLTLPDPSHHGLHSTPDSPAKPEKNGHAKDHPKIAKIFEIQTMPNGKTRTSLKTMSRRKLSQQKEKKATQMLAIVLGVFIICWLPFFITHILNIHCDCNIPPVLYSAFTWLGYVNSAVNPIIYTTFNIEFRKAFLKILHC
UniProt Q01959, whole entry: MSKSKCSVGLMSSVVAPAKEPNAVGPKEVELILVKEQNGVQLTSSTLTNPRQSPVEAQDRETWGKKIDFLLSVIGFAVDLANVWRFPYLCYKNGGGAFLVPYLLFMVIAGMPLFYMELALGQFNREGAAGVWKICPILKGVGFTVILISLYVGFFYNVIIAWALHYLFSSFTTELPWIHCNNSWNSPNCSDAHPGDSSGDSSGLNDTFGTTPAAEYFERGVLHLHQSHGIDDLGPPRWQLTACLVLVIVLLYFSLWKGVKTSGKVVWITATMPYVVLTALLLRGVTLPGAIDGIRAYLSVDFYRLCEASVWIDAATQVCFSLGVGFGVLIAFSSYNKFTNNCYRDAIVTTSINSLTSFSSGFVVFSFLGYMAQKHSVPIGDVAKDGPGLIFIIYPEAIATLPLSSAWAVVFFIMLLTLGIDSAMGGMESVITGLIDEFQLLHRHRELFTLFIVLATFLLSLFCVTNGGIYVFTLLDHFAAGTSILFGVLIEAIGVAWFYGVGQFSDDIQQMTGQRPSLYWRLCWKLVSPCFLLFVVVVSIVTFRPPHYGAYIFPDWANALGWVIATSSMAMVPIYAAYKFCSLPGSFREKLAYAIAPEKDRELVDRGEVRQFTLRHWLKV

How the values were obtained:
D2 receptor [1] = molecular target: T1, D2 receptor (Homo sapiens, UniProt P14416); experiment: D2 receptor function assay, calcium mobilization (FLIPR); type: cell-based; details: read-out: Calcium mobilization assay IC50, HEK293, antagonism of D2 receptor
D2 receptor [2] = molecular target: T1, D2 receptor; experiment: D2 receptor affinity assay (radioligand competition, 3H-7-OH-DPAT); type: binding; details: read-out: D2 affinity assay IC50; cloned D2 receptor expressed in HEK293 cell line; 3H-7-OH-DPAT 1 nM
DAT = DAT (Homo sapiens, UniProt Q01959); experiment: DAT transporter assay (neurotransmitter transporter absorption assay); type: cell-based; details: read-out: Neurotransmitter transporter (DAT) absorption assay IC50

Compound `Oc1cccc(C2CCN(Cc3c[nH]c4ccccc34)C2)c1` (single isomer, unassigned) [MDC-161502-010] has an IC50 (D2 receptor [1]) of 144 nM, an IC50 (D2 receptor [2]) of 2.35 nM and an IC50 (DAT) of 218 nM.
With `Oc1cccc(C2CCN(Cc3c[nH]c4ccccc34)C2)c1` (single isomer, unassigned) [MDC-161502-011] the IC50 (D2 receptor [1]) was 2 nM, the IC50 (D2 receptor [2]) was 3.46 nM and the IC50 (DAT) was 14.7 nM.
